The values that follow are results of earlier work, collected in patent publication US4228124A, “Fumigating method and apparatus” (priority 1979, dated 1980).

Only a part of the results on these compounds is given; other tests are left out.

The conditions of the series: Table 1; thermal decomposition of blowing agent; cited from earlier work.

With `NNc1nc(NN)nc(NN)n1`, the Blowing temp. was 235-290 °C.
